Results taken from US20240190851A1, “FURAN FUSED RING-SUBSTITUTED GLUTARIMIDE COMPOUND” (MEDSHINE DISCOVERY INC., priority 2021, published 2024).

Test system: human prostate cancer LNCaP cells
Test: Antiproliferative effect in LNCaP cells (CellTiter-Glo, 6 days)
Settings: read-out: LNCaP IC50
Protocol: In this experiment, the inhibitory effect of the test compound on cell proliferation in human prostate cancer LNCaP cells was detected.
The tumor cell lines were cultured in a 37° C., 5% CO2 incubator under the above culture conditions. Regular passage, and cells in logarithmic growth phase were taken for plating.
2. Cell Plating • (1) Cells were stained with trypan blue and viable cells were counted; • (2) the cell concentration was adjusted to an appropriate concentration;
• (3) 90 μL of cell suspension per well was added to the culture plate as shown in the table above, and cell-free culture medium was added to the blank control well; • (4) the culture plate was cultured overnight in a 37° C., 5% CO2 incubator with 100% relative humidity.
Preparation of stock solution storage plate with 400 times the initial concentration of the compound: The compound was serially diluted with DMSO from the highest concentration to the lowest concentration. The solution was prepared as needed each time.
Preparation of Working Solution with 10 Times the Initial Concentration of Compounds and Cell Treatment with Compounds • (1) To a V-bottom 96-well plate was added 78 μL of cell culture medium, and 2 μL of compound was pipetted from a stock solution storage plate with 400 times the initial concentration of the compound and added to the cell culture medium of the 96-well plate. […]

Compound | pIC50
N#Cc1ccc(O[C@H]2CC[C@H](NC(=O)c3ccc(N4CCC(CN5CCN(c6cccc7c6ccc6occ(C8CCC(=O)NC8=O)c67)CC5)CC4)nn3)CC2)cc1Cl (single isomer, unassigned) [WX017] | 7.36
N#Cc1ccc(O[C@H]2CC[C@H](NC(=O)c3ccc(N4CCC(CN5CCN(c6cccc7c6ccc6occ(C8CCC(=O)NC8=O)c67)CC5)CC4)nn3)CC2)cc1Cl (single isomer, unassigned) [WX016] | 7.51

pIC50: −log10 of the molar value.
